# Assay results published in US20240336574A1 (LATIGO BIOTHERAPEUTICS, INC., priority 2021, published 2024).
# By UniProt entry, the sequences of proteins in these tests, tags left out.
# UniProt Q9Y5Y9, whole entry: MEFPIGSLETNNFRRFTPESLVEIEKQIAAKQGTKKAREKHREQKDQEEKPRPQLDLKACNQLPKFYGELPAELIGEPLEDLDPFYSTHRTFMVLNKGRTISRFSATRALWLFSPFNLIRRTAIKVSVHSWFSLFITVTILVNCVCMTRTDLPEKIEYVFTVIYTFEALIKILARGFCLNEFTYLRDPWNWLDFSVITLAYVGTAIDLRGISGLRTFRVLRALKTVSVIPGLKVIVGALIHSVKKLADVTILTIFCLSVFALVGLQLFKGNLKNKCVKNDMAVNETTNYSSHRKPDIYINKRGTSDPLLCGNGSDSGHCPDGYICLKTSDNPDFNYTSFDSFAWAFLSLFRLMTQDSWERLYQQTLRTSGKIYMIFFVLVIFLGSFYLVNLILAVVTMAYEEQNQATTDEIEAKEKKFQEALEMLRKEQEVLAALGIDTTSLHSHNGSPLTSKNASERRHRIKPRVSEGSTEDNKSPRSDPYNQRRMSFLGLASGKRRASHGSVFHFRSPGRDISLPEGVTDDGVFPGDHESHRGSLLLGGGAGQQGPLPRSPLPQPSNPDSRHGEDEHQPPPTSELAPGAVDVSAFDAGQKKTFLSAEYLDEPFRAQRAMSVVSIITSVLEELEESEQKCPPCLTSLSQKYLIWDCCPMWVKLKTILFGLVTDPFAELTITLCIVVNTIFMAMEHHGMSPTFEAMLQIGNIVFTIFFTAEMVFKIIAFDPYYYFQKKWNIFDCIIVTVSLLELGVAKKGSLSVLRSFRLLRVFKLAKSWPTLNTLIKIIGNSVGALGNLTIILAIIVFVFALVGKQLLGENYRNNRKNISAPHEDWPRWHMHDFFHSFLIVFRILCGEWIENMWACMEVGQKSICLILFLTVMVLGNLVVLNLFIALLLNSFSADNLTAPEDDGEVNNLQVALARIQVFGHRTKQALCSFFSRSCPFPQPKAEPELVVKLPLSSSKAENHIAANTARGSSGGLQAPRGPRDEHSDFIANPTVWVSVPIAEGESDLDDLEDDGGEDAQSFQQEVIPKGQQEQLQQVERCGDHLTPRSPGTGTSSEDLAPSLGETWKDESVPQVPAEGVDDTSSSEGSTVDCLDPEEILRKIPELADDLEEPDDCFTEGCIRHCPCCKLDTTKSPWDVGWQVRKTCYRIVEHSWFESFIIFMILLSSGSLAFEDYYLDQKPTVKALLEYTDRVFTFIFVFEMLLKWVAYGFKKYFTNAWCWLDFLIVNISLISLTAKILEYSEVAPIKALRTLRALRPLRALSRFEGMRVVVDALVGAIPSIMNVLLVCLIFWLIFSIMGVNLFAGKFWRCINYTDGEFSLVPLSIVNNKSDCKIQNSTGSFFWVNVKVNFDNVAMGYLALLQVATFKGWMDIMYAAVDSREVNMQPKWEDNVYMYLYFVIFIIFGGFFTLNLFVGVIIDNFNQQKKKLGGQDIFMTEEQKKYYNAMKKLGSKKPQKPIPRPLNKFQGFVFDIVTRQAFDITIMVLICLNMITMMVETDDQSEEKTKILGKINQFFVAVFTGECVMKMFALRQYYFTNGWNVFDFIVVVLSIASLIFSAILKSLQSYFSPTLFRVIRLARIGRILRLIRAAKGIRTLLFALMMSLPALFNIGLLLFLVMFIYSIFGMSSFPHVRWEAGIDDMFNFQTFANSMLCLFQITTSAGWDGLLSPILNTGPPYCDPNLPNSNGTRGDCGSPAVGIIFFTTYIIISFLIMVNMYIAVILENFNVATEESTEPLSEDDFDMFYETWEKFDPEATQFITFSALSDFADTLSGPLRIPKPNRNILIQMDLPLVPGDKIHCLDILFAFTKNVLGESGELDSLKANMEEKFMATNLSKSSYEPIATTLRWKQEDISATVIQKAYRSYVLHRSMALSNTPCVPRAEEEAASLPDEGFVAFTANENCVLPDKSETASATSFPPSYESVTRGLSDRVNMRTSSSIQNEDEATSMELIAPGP
# Like-named read-outs stand apart in the source and are kept apart here.
# Biological target: recombinant human NaV1.8 stably transfected HEK cells (Homo sapiens, UniProt Q9Y5Y9)
# Assay: Compound profiling on NaV1.8, human NaV1.8 cell line, SyncroPatch384PE automated patch clamp assay (Example 102, first set of compounds, Table 16)
# Procedure: Compound Profiling on NaV1.8—Human NaV1.8 Cell Line—SyncroPatch384PE Assay
# Compounds were tested on recombinant human NaV1.8 stably transfected HEK cells using the SyncroPatch384PE system, an automated patch clamp device. Cells were cultured at 37° C./5% CO2 in DMEM medium supplemented with GlutaMAX I, NEAA 1%, FBS 10% and seeded in T175 flasks. Cells were cultured at 30° C. one day prior to recording sodium currents. On the day of the recordings, cells were detached with 0.05% Trypsin-EDTA, resuspended in serum free DMEM medium and placed into the SyncroPatch384PE 6° C. pre-cooled cell hotel and shaken at 200 rpm. Intracellular solution (IC) contained, in mM: 10, CsCl; 110, CsF; 20, EGTA; 10, HEPES. Extracellular solution (EC) contained, in mM: 140, NaCl; 4, KCl; 5, Glucose; 10, HEPES; 2, CaCl2; 1, MgCl2. Washing solution contained, in mM: 40, NMDG; 100, NaCl; 4, KCl; 10, Glucose; 10, HEPES; 5, CaCl2; 1, MgCl2.
# Compounds were tested in triplicate in 0.1% DMSO and 0.030% Pluronic Acid. […] Compounds were then applied by the SynchroPatch into each well and the current was recorded for five minutes in EC, followed by application of tetracaine to achieve full block at the end of the experiment. The potency of the compounds was assessed on two read-outs, resting state block (P1 measurement) or inactivated state block (P2 measurement) to obtain IC50 values. […]
compound,measurement,setting,value
"COc1c(Oc2ncc(Br)cc2C(=O)Nc2ccc(C(N)=O)cc2)ccc(F)c1F [Compound 1569, 5-bromo-N-(4-carbamoylphenyl)-2-(3,4-difluoro-2-methoxy-phenoxy)pyridine-3-carboxamide]",IC50,"read-out: P1IC50, resting state block (P1 measurement), human NaV1.8 HEK cells, Table 16 (first set of compounds)",< 20 nM
same,IC50,"read-out: P2IC50, inactivated state block (P2 measurement), human NaV1.8 HEK cells, Table 16 (first set of compounds)",< 20 nM
